Laboratory results taken from patent publication US20260022143A1, “Cyclic Peptide Inhibitors of IL-23” (JANSSEN PHARMACEUTICA NV, priority 2022, published 2026).

Each molecule was assayed against T1, IL-23R (Homo sapiens, UniProt Q5VWK5) (assay: IL23R Reporter Assay). Conditions: HEK293 cells containing IL-23R, IL-12RP1 and STAT-inducible firefly luciferase reporter; 10 ng/mL IL-23 (EC90); 5 h at 37° C.; read-out: IL23R Reporter Assay.
T1 construct: host or cells: HEK293
T1 sequence (Q5VWK5 24-629): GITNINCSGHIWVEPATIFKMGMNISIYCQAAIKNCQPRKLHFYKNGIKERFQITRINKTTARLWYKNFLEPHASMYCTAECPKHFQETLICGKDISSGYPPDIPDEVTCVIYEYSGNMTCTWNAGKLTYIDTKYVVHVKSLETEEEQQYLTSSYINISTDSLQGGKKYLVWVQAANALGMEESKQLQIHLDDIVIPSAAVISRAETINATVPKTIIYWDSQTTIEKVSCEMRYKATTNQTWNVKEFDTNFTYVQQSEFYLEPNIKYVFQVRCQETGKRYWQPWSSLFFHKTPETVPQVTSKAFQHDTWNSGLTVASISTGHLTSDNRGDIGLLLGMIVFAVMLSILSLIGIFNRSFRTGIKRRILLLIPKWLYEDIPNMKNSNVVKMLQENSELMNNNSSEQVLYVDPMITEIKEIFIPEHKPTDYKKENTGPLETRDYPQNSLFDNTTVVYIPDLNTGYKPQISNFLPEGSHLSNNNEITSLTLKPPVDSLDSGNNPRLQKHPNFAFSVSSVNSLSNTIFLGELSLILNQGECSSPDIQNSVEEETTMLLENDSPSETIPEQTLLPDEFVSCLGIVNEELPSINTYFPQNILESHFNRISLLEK
Format: cell-based

COCCOCCOCC(=O)NCC[N+](C)(C)CC(=O)N[C@@H]1C(=O)N[C@@H](CC(=O)N(C)C)C(=O)N[C@@H]([C@@H](C)O)C(=O)N[C@@H](Cc2c[nH]c3c(C)cccc23)C(=O)N[C@@H](CCCCN(C)C(C)=O)C(=O)N[C@H](C(=O)N[C@@H](Cc2ccc(OCCOCCOCC[N+](C)(C)C)cc2)C(=O)N[C@@H](Cc2ccc3ccccc3c2)C(=O)NC2(C(=O)N[C@@H](CCN(C)C(C)=O)C(=O)N[C@@H](CC(N)=O)C(=O)N[C@@H](Cc3cccnc3)C(=O)N(C)CC(=O)N(C)C)CCOCC2)C(C)(C)SSC1(C)C [compound 197, mPEG3CO-SP6-Pen(3)-N(N(Me)2)-T-7MeW-K(NMeAc)-Pen(3)-APEG3F-2Nal-THP-Dab(NMeAc)-N-3Pya-Sar-CON(Me)2] and CC(=O)NCCCC[C@@H]1NC(=O)[C@H](Cc2c[nH]c3c(C)cccc23)NC(=O)[C@H]([C@@H](C)O)NC(=O)[C@H](CC(=O)N(C)C)NC(=O)[C@@H](NC(=O)CCOCCOCC[N+](C)(C)C)C(C)(C)SSC(C)(C)[C@@H](C(=O)N[C@@H](Cc2ccc(OCCOCCOCC[N+](C)(C)C)cc2)C(=O)N[C@@H](Cc2ccc3ccccc3c2)C(=O)NC2(C(=O)N[C@@H](CCCCN(C)C(C)=O)C(=O)N[C@@H](CC(N)=O)C(=O)N[C@@H](Cc3cccnc3)C(=O)N(C)CC(=O)N(C)C)CCOCC2)NC1=O [compound 243, cPEG3aCO-Pen(3)-N(N(Me)2)-T-7MeW-K(Ac)-Pen(3)-APEG3F-2Nal-THP-K(NMeAc)-N-3Pya-Sar-CON(Me)2] are within 1.5-fold of each other in IC50: 2.9 nM for the first, 3.9 nM for the second.

CC(=O)N(C)CCCC[C@@H]1NC(=O)[C@H](Cc2c[nH]c3c(C)cccc23)NC(=O)[C@H]([C@@H](C)O)NC(=O)[C@H](CC(=O)N(C)C)NC(=O)[C@@H](NC(=O)CCOCCOCC[N+](C)(C)C)C(C)(C)SSC(C)(C)[C@@H](C(=O)N[C@@H](Cc2ccc(OCCNCC[N+](C)(C)C)cc2)C(=O)N[C@@H](Cc2ccc3ccccc3c2)C(=O)NC2(C(=O)N[C@@H](CCCCN(C)C(C)=O)C(=O)N[C@@H](CC(N)=O)C(=O)N[C@@H](Cc3cccnc3)C(=O)N(C)CC(=O)N(C)C)CCOCC2)NC1=O [compound 211, cPEG3aCo-Pen(3)-N(NMe2)-T-7MeW-K(NMeAc)-Pen(3)-AEF(NHCh)-2Nal-THP-K(NMeAc)-N-3Pya-Sar-CON(Me)2] and CC(=O)N(C)CCCC[C@@H]1NC(=O)[C@H](Cc2c[nH]c3c(C)cccc23)NC(=O)[C@H]([C@@H](C)O)NC(=O)[C@H](CC(=O)N(C)C)NC(=O)[C@@H](NC(=O)CCOCCOCC[N+](C)(C)C)C(C)(C)SSC(C)(C)[C@@H](C(=O)N[C@@H](Cc2ccc(OCCCC[N+](C)(C)C)cc2)C(=O)N[C@@H](Cc2ccc3ccccc3c2)C(=O)NC2(C(=O)N[C@@H](CCCCN(C)C(C)=O)C(=O)N[C@@H](CC(N)=O)C(=O)N[C@@H](Cc3cccnc3)C(=O)N(C)CC(=O)N(C)C)CCOCC2)NC1=O [compound 226, cPEG3aCO-Pen(3)-N(N(Me)2)-T-7MeW-K(NMeAc)-Pen(3)-TMA4F-2Nal-THP-K(NMeAc)-N-3Pya-Sar-CON(Me)2] are within 1.5-fold of each other in IC50: 2.3 nM for the first, 2.8 nM for the second.

CC(=O)N(C)CCCC[C@@H]1NC(=O)[C@H](Cc2c[nH]c3c(C)cccc23)NC(=O)[C@H]([C@@H](C)O)NC(=O)[C@H](CC(=O)N(C)C)NC(=O)[C@@H](NC(=O)CCOCCOCC[N+](C)(C)C)C(C)(C)SSC(C)(C)[C@@H](C(=O)N[C@@H](Cc2ccc(OCC3CCC[N+](C)(C)C3)cc2)C(=O)N[C@@H](Cc2ccc3ccccc3c2)C(=O)NC2(C(=O)N[C@@H](CCCCN(C)C(C)=O)C(=O)N[C@@H](CC(N)=O)C(=O)N[C@@H](Cc3cccnc3)C(=O)N(C)CC(=O)N(C)C)CCOCC2)NC1=O (stereo partly drawn) [compound 215, cPEG3aCO-Pen(3)-N(N(Me)2)-T-7MeW-K(NMeAc)-Pen(3)-DMMMF-2Nal-THP-K(NMeAc)-N-3Pya-Sar-CON(Me)2] and CC(=O)N(C)CCCC[C@@H]1NC(=O)[C@H](Cc2c[nH]c3c(C)cccc23)NC(=O)[C@H]([C@@H](C)O)NC(=O)[C@H](CC(=O)N(C)C)NC(=O)[C@@H](NC(=O)CCOCCOCC[N+](C)(C)C)C(C)(C)SSC(C)(C)[C@@H](C(=O)N[C@@H](Cc2ccc(OCC[n+]3ccccc3)cc2)C(=O)N[C@@H](Cc2ccc3ccccc3c2)C(=O)NC2(C(=O)N[C@@H](CCCCN(C)C(C)=O)C(=O)N[C@@H](CC(N)=O)C(=O)N[C@@H](Cc3cccnc3)C(=O)N(C)CC(=O)N(C)C)CCOCC2)NC1=O [compound 231, cPEG3aCO-Pen(3)-N(N(Me)2)-T-7MeW-K(NMeac)-Pen(3)-NPyEF-2Nal-THP-K(NMeAc)-N-3Pya-Sar-CON(Me)2] are within 1.5-fold of each other in IC50: 2.3 nM for the first, 2.9 nM for the second.

CC(=O)N[C@H](CCCC[N+](C)(C)C)C(=O)N[C@@H]1C(=O)N[C@@H](CC(=O)N(C)C)C(=O)N[C@@H]([C@@H](C)O)C(=O)N[C@@H](Cc2c[nH]c3c(C)cccc23)C(=O)N[C@@H](CCCCN(C)C(C)=O)C(=O)N[C@H](C(=O)N[C@@H](Cc2ccc(OCCOCCOCC[N+](C)(C)C)cc2)C(=O)N[C@@H](Cc2ccc3ccccc3c2)C(=O)NC2(C(=O)N[C@@H](CCCCN(C)C(C)=O)C(=O)N[C@@H](CC(N)=O)C(=O)N[C@@H](Cc3cccnc3)C(=O)N(C)CC(=O)N(C)C)CCOCC2)C(C)(C)SSC1(C)C [compound 216, MeCO-k(Me)3-Pen(3)-N(N(Me)2)-T-7MeW-K(NMeAc)-Pen(3)-APEG3F-2Nal-THP-K(NMeAc)-N-3Pya-Sar-CON(Me)2] and CC(=O)N(C)CCCC[C@@H]1NC(=O)[C@H](Cc2c[nH]c3c(C)cccc23)NC(=O)[C@H]([C@@H](C)O)NC(=O)[C@H](CC(=O)N(C)C)NC(=O)[C@@H](NC(=O)CCOCCOCC[N+](C)(C)C)C(C)(C)SSC(C)(C)[C@@H](C(=O)N[C@@H](Cc2ccc(OCCN(C)CCC[N+](C)(C)C)cc2)C(=O)N[C@@H](Cc2ccc3ccccc3c2)C(=O)NC2(C(=O)N[C@@H](CCCCN(C)C(C)=O)C(=O)N[C@@H](CC(N)=O)C(=O)N[C@@H](Cc3cccnc3)C(=O)N(C)CC(=O)N(C)C)CCOCC2)NC1=O [compound 234, cPEG3aCO-Pen(3)-N(N(Me)2)-T-7MeW-K(NMeAc)-Pen(3)-AEF(MePrpa)-2Nal-THP-K(NMeAc)-N-3Pya-Sar-CON(Me)2] are within 1.5-fold of each other in IC50: 2.9 nM for the first, 3.3 nM for the second.

CC(=O)N[C@@H]1C(=O)N[C@@H](CC(=O)N(C)C)C(=O)N[C@@H]([C@@H](C)O)C(=O)N[C@@H](Cc2c[nH]c3c(C)cccc23)C(=O)N[C@@H](CCCCN(C)C(C)=O)C(=O)N[C@H](C(=O)N[C@@H](Cc2ccc(OCCCCC[N+](C)(C)C)cc2)C(=O)N[C@@H](Cc2ccc3ccccc3c2)C(=O)NC2(C(=O)N[C@@H](CCCCN(C)C(C)=O)C(=O)N[C@@H](CC(N)=O)C(=O)N[C@@H](Cc3cccnc3)C(=O)N(C)CC(=O)NCCOCCOCC[N+](C)(C)C)CCOCC2)C(C)(C)SSC1(C)C [compound 219, MeCO-Pen(3)-N(N(Me)2)-T-7MeW-K(NMeAc)-Pen(3)-TMAPF-2Nal-THP-K(NMeAc)-N-3Pya-Sar-CO(NHPEG3a)] and CC(=O)N(C)CCCC[C@@H]1NC(=O)[C@H](Cc2c[nH]c3c(C)cccc23)NC(=O)[C@H]([C@@H](C)O)NC(=O)[C@H](CC(=O)N(C)C)NC(=O)[C@@H](NC(=O)CCOCCOCC[N+](C)(C)C)C(C)(C)SSC(C)(C)[C@@H](C(=O)N[C@@H](Cc2ccc(OCCN(C)CCOCC[N+](C)(C)C)cc2)C(=O)N[C@@H](Cc2ccc3ccccc3c2)C(=O)NC2(C(=O)N[C@@H](CCCCN(C)C(C)=O)C(=O)N[C@@H](CC(N)=O)C(=O)N[C@@H](Cc3cccnc3)C(=O)N(C)CC(=O)N(C)C)CCOCC2)NC1=O [compound 237, cPEG3aCO-Pen(3)-N(N(Me)2)-T-7MeW-K(NMeAc)-Pen(3)-AEF(NMePEG2a)-2Nal-THP-K(NMeAc)-N-3Pya-Sar-CON(Me)2] are the same in IC50: 2.7 nM for the first, 2.7 nM for the second.

CC(=O)N(C)CCCC[C@@H]1NC(=O)[C@H](Cc2c[nH]c3c(C)cccc23)NC(=O)[C@H]([C@@H](C)O)NC(=O)[C@H](CC(=O)N(C)C)NC(=O)[C@@H](NC(=O)CCOCCOCC[N+](C)(C)C)C(C)(C)SSC(C)(C)[C@@H](C(=O)N[C@@H](Cc2ccc(OCCOCCOCC[N+]3(C)CCOCC3)cc2)C(=O)N[C@@H](Cc2ccc3ccccc3c2)C(=O)NC2(C(=O)N[C@@H](CCCCN(C)C(C)=O)C(=O)N[C@@H](CC(N)=O)C(=O)N[C@@H](Cc3cccnc3)C(=O)N(C)CC(=O)N(C)C)CCOCC2)NC1=O [compound 223, cPEG3aCO-Pen(3)-N(N(Me)2)-T-7MeW-K(NMeAc)-Pen(3)-MMPEG3F-2Nal-THP-K(NMeAc)-N-3Pya-Sar-CON(Me)2] and COCCOCCOCC[N+](C)(CCOCCOCCOC)CCOc1ccc(C[C@H](NC(=O)[C@H]2NC(=O)[C@H](CCCCN(C)C(C)=O)NC(=O)[C@H](Cc3c[nH]c4c(C)cccc34)NC(=O)[C@H]([C@@H](C)O)NC(=O)[C@H](CC(=O)N(C)C)NC(=O)[C@@H](NC(=O)CCOCCOCC[N+](C)(C)C)C(C)(C)SSC2(C)C)C(=O)N[C@@H](Cc2ccc3ccccc3c2)C(=O)NC2(C(=O)N[C@@H](CCCCN(C)C(C)=O)C(=O)N[C@@H](CC(N)=O)C(=O)N[C@@H](Cc3cccnc3)C(=O)N(C)CC(=O)N(C)C)CCOCC2)cc1 [compound 241, cPEG3aCO-Pen(3)-N(N(Me)2)-T-7MeW-K(NMeAc)-Pen(3)-AEF(NMeBismPEG3)-2Nal-THP-K(NMeAc)-N-3Pya-Sar-CON(Me)2] are within 1.5-fold of each other in IC50: 2.2 nM for the first, 2.4 nM for the second.

CC(=O)NCCCC[C@@H]1NC(=O)[C@H](Cc2c[nH]c3c(C)cccc23)NC(=O)[C@H]([C@@H](C)O)NC(=O)[C@H](CC(N)=O)NC(=O)[C@@H](NC(C)=O)C(C)(C)SSC(C)(C)[C@@H](C(=O)N[C@@H](Cc2ccc(OCCn3cc(CC[N+](C)(C)C)nn3)cc2)C(=O)N[C@@H](Cc2ccc3ccccc3c2)C(=O)NC2(C(=O)N[C@@H](CCCCNC(C)=O)C(=O)N[C@@H](CC(N)=O)C(=O)N[C@@H](Cc3cccnc3)C(=O)N(C)CC(N)=O)CCOCC2)NC1=O [compound 235] gave an IC50 of 3.3 nM.
